Source: patent US11395798B2, “O/W type emulsion” (NOF CORPORATION, priority 2015, dated 2022)

Legend:
[1] = retentivity in blood of Dex-CHEMS / Dex-Pal emulsions (HPLC of plasma); type: in vivo; details: emulsion composed with B-2, ICR mouse, intravenous
Experimental: When the lipid composition was 3 mM B-2/DOPC/Chol=3/4/3+10 mol % Dex-CHEMS+10 mol % DMG-PEG2000+10 mol % DSG-PEG2000 (1000 μL), a lipid solution was mixed in vitro as follows.
The solvent was evaporated once and the residue was redissolved in 100 μL CHCl3. N2 gas was blown to form a lipid thin film on the wall of a test tube. After a few hours of a vacuum treatment by a desiccator, 20 mM Maric acid buffer (30 mM NaCl, pH 3.0, 1000 μL) was added, and the mixture was incubated for 10 min at room temperature. After sonication with a bath-type sonicator for 30 sec, the mixture was sonicated by a probe-type sonicator for 5 min (output power: 30%). After centrifugation at 4° C., 15000 g for 5 min, the supernatant was collected. Neutralization was performed by adding an equal amount of 36 mM NaOH/PBS. […]
Plasma (16.5 μL) centrifuged at 4° C., 1000 g for 10 min was transferred to another 1.5 mL tube. […] Using HPLC, the peak area of Dex-CHEMS and the peak area of 4 MU-Pal were calculated. The peak area of 0.5, 0.25, 0.125, 0.0625 nmol Dex-CHEMS was calculated by a similar method using HPLC and used as an analytical curve. […]
The residual rate in blood at 1 hr later was calculated with that 1 min after the administration as 100%. Similar to the above-mentioned, an emulsion composed of B-2 and dexamethasone palmitate (Dex-Pal) was prepared and evaluated similarly.

[2] = water/octanol; cited from earlier work

Substance: dexamethasone palmitate [Dex-Pal]
- residual in blood at 1 hr (1 min after administration as 100%) [1]: disappeared from blood
- Log Pow [2]: 8.13
